Values of other authors in patent US12551475B2, “Methods and compositions for treating RNA viral infections” (Model Medicines, Inc., priority 2020, dated 2026).

Assays:
HIV protease = HIV protease (Human immunodeficiency virus type 1 group M subtype B, UniProt P04585); conditions: cited from earlier work
P. falciparum = conditions: cited from earlier work

Structure (SMILES)	Ki (HIV protease) [nM]	IC50 (P. falciparum; chloroquine-resistant strain) [nM]	IC50 (P. falciparum; chloroquine-sensitive strain) [nM]
CC(C)CN(C[C@@H](O)[C@H](Cc1ccccc1)NC(=O)O[C@H]1CCOC1)S(=O)(=O)c1ccc(N)cc1 [Amprenavir, N-[(1S,2R)-3-[[(4-aminophenyl)sulfonyl](2-methylpropyl)amino]-2-hydroxy-1-(phenylmethyl)propyl]-carbamic acid, (3S)-tetrahydro-3-furanyl ester]	0.04	–	–
CCC[C@@H]1C[C@@H](C(=O)N[C@@H]([C@H]2O[C@H](SC)[C@H](O)[C@@H](O)[C@H]2O)[C@H](C)Cl)N(C)C1 [Clindamycin, methyl 7-chloro-6,7,8-trideoxy-6-[[[(2S,4R)-1-methyl-4-propyl-2-pyrrolidinyl]carbonyl]amino]-1-thio-L-threo-α-D-galacto-octopyranoside]	–	3.12	8.81

Like-named read-outs stand apart in the source and are kept apart here.
